GIV-Gai inh: GIV-Galpha-i interaction inhibition. 210,000 compounds, 0.42% hits. percent of control (FP), % (no concentration beside the values). Galpha-i3/FITC-GIV peptide fluorescence polarization, 90 min; active compounds read low; scaled: aluminum fluoride 0%, vehicle 100%. AID 1224905. P08753;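 active = replicate mean at 85% of control or lower, very high polarization wells dropped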;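 note: wells of about 15 µL received 100 nL stock; the first replicate is given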
HCMV NEC inh: disrupts HCMV UL50-UL53 complex binding. HTRF UL50-UL53 interaction, normalized percent inhibition. inhibition, % (concentration not given with the values). actives 0.15% (n = 190,000); in the data active = inhibition above about 27%, passing the limit was not always enough
GIV-Gai FP conf: confirmation of inhibitors of GIV binding to rat Galpha-i3; actives 38% (n = 580); shares compounds with GIV-Gai inh; fluorescence polarization, mP at 100 µM; FITC-GIV peptide binding to Galphai3, fluorescence polarization; active compounds read low; AID 1259350;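 active = inhibition score of 15 or more, meaning 100 minus mean polarization as percent of control over three replicates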;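 note: lower mP means peptide displaced from Galphai3 so more inhibition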
GIV Gai AS conf: confirmation of inhibitors of GIV binding to human Galpha-i3 | shares compounds with GIV-Gai inh | AlphaScreen Galphai3-GIV binding, purified proteins, 90 min; active compounds read low | AlphaScreen counts at 100 µM | actives 39% (n = 580);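 active = inhibition score at or above a set limit, where the score is 100 minus the three-replicate mean percent of control signal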
The depositor's hits bear a star; . = no result. This is a sample that favours compounds with a hit; in the whole collection about 0.43% have one here.

SMILES | GIV-Gai inh | HCMV NEC inh | GIV-Gai FP conf | GIV Gai AS conf
CC[C@@]1(O)C(=O)OCc2c1cc1n(c2=O)Cc2cc3c(O)cccc3nc2-1 | 77* | -78 | 61* | 15350
CC[C@@]1(O)C(=O)OCc2c1cc1n(c2=O)Cc2cc3ccccc3nc2-1 | 98 | -83 | . | .
Cc1nn(Cc2ccccc2)c(C)c1C(=O)OCC(=O)Nc1ccc(S(N)(=O)=O)cc1 | . | 5 | . | .
C=CCN1C(=O)/C(=C/c2ccco2)C(=O)NC1=S | 46* | -2 | 52* | 936*
COc1ccccc1N1C(=O)NC(=O)/C(=C\C=C\c2ccco2)C1=O | 104 | . | . | .
C=CCN1C(=O)NC(=O)/C(=C/c2ccco2)C1=O | 119 | . | . | .
O=C1NC(=O)N(Cc2ccco2)C(=O)/C1=C\c1ccco1 | 61* | 14 | 46* | 1412*
COc1cccc(CN2CCCN(Cc3ccccc3)S2(=O)=O)c1 | 100 | -2 | . | .
Cc1nc2ccccc2c(=O)n1-c1ccc(Cl)cc1 | . | -4 | . | .
COc1cc(CN2CCN(C(=O)Cc3ccccc3)CC2)cc(OC)c1OC | 98 | -8 | . | .

Record cards, as listed above. Values in the order: GIV-Gai inh, HCMV NEC inh, GIV-Gai FP conf, GIV Gai AS conf
C=CCN1C(=O)NC(=O)/C(=C/c2ccco2)C1=O across the screens: 119, ., ., .
CC[C@@]1(O)C(=O)OCc2c1cc1n(c2=O)Cc2cc3c(O)cccc3nc2-1 across the screens: 77*, -78, 61*, 15350

Going on with the list.
SMILES | GIV-Gai inh | HCMV NEC inh | GIV-Gai FP conf | GIV Gai AS conf
COc1cc(C(c2c(C)[nH]n(-c3ccccc3)c2=O)c2c(C)[nH]n(-c3ccccc3)c2=O)cc(OC)c1OC | 79* | . | 53* | 19198*
CC(=Cc1csc(C)n1)C1CC2OC2CCCC(C)C(O)C(C)C(=O)C(C)(C)C(O)CC(=O)O1 (centres undefined) | . | -5 | . | .
O=C1NC(=O)C(=Cc2ccc(-c3cc(C(=O)O)ccc3Cl)o2)C(=O)N1 | 59* | -19 | 60* | 4991*
COc1ccc(N2C(=O)/C(=C/c3ccc(-c4cc(C(=O)O)ccc4Cl)o3)C(=O)NC2=S)cc1 | 108 | -1 | . | .
CCN1CCN(C(=O)Cc2c(C)nc3nc(-c4ccc(C(C)(C)C)cc4)nn3c2C)CC1 | 104 | -22 | . | .
COc1cccc2ncn(Cc3cn4ccccc4n3)c(=O)c12 | . | 44 | . | .

Compound activity: PubChem, ICCB-Longwood Screening Facility, Harvard Medical School
